Measurements published in PubChem BioAssay AID652104 (National Center for Advancing Translational Sciences (NCATS), 2013).
Only a part is listed here, and it is no random draw. Records with an inconclusive call do not appear. Active and inactive are the calls of the source. The call rests on the fitted dose curve; in most records, active means well fitted activation curve with a large enough effect; inconclusive means small, poorly fitted or top-dose-only effect, or another doubt; inactive means no such curve, though single readings can be large or run the other way.

Experiment: qHTS of TDP-43 Inhibitors; further: nearly all actives have a fitted effect of over 50% in size
Conditions: TDP-43 expressing yeast growth rescue, BacTiter-Glo, 24 h
Text: The goal of this project is to identify new chemical probes capable of reversing the toxicity associated with TDP-43 which is associated with frontotemporal lobar degeneration and amyotrophic lateral sclerosis. These compounds will provide a complementary approach to deciphering the tangled mechanisms of toxicity and protection that we have uncovered through genome-wide genetic screens and are beginning to uncover in a large-scale proteomics analysis with mass spectroscopy.
To this end, a miniaturized assay was developed to be screened against the Molecular Libraries Small Molecule Repository (MLSMR) to discover TDP-43 inhibitors. Please note that in the set-up this yeast-based assay compounds that inhibit as TDP-43, have a read-out as activators.
NIH Chemical Genomics Center [NCGC]
NIH Molecular Libraries Probe Centers Network [MLPCN]
Assay Submitter (PI): Susan Lindquist, Whitehead Institute/MIT
Dispense 2.5 microL yeast galactose medium per 1536-well plate, pin compound, dispense 2.5 microL TDP-43 expressing yeast in galactose medium at OD600=0.02 (pregrown in raffinose medium to mid-log phase) per well, incubate for 24 hr at 30 deg C, and cell growth will be measured using 5 microL of Bactiter/Glo reagent to entire plate and read using Luminescence Protocol in ViewLux.
Potency means the concentration at half of the fitted maximal effect.

Structure (SMILES)	Potency
COc1ccc2cc(C(C)C(=O)O)ccc2c1 (configuration not stated)	active: 14.1 µM
COc1ccc2cc([C@H](C)C(=O)O)ccc2c1	active: 22.4 µM
